Results reported in ChEMBL document CHEMBL1159180, “Synthesis of 7-chloro-4-substituted aminoquinolines and their in vitro ability to produce methemoglobin in canine hemolysate” (1997).

Legend:
[1] = species on record: Canis familiaris; test: In vitro effect on methemoglobin formation specified at 5 mM concentration
[2] = species on record: Canis familiaris; test: In vitro effect on methemoglobin formation specified at 1 mM concentration
[3] = species on record: Canis familiaris; test: In vitro effect on methemoglobin formation specified at 250 uM concentration
[4] = species on record: Canis familiaris; test: In vitro effect on methemoglobin formation at specified 5 mM concentration

Compound	Methemoglobin [1] [%]	Methemoglobin [2] [%]	other results
O=[N+]([O-])c1ccc(NNc2ccnc3cc(Cl)ccc23)cc1	82.6	9.3	
O=N[O-].[Na+]		100	Methemoglobin [3]: 19.2%
COc1cc(NC(C)CCCN)c2ncccc2c1 (stereo unspecified)			Methemoglobin [4]: 89.9%
Clc1ccc2c(NCCN3CCN(c4ccccc4)CC3)ccnc2c1	6.15		
O=[N+]([O-])c1ccc(OCCNc2ccnc3cc(Cl)ccc23)cc1	11.2		
O=[N+]([O-])c1cc2c(NCCO)ccnc2cc1Cl	21.9	2.7	
CC(=O)c1ccc(Nc2ccnc3cc(Cl)c([N+](=O)[O-])cc23)c([N+](=O)[O-])c1	12.8		
Clc1ccc2c(NCc3ccco3)ccnc2c1	22.2		
